Data taken from patent US12296019B2, “Compound for preparation of antibody-payload conjugate and use thereof” (AbTis Co., Ltd., priority 2019, dated 2025).

Legend:
NCI-N87 = experiment: in vitro cytotoxicity test, NCI-N87; assay type: cell-based, human
Experimental: (§1) The efficacy of the antibody-payload conjugate (ADC, trastuzumab-DM1 conjugate) was evaluated based on the target marker level of cancer cells, and cytotoxicity experiments were performed using NCI-N87 and BT474 for the positive expression cell lines of the target antigen Her2 and MDA-MB-468 for the negative cell lines.

BT474 = experiment: in vitro cytotoxicity test, BT474; assay type: cell-based; conditions: Her2-overexpressing cells BT474
Experimental: as §1

[1] = tested on: NCI-N87 gastric cancer cell line; experiment: anticancer efficacy test in NCI-N87 xenograft model; assay type: in vivo, BALB/c nude mouse; conditions: BALB/c nude mice, 5 mg/kg intravenous, once/2 days, three-time administration, 5-week observation
Experimental: A xenograft model was prepared by subcutaneously transplanting an NCI-N87 gastric cancer cell line overexpressing a target antigen, and an anticancer efficacy test was performed on the administered materials, by classifying the xenograft model into four groups. Since the BALB/c nude mouse used in the present experiment is deficient in T cells, cancer cells are easily transplanted into the mouse, so that the mouse was used as model suitable for an anticancer efficacy test using rodents.
A RPM11640 medium (Gibco, 22400-089) containing heat-inactivated 10% fetal bovine serum (FBS, Gibco, 10082-742) was put into a cell culture flask, and 1 vial of a human tumor cell line (NCI-N87 cell line) was added thereto and cultured in a 5% CO2 incubator at 37° C. […]
During the administration and observation period, the types of general symptoms including death, the date of onset and the degree of symptoms were observed once a day and recorded for each individual. […]
Body weight is measured on the day of group separation or the start of administration of the test material, and then twice/week after that.
The size of the tumor is measured 2 times/week for 5 weeks from the start date of administration of the test material. The major axis and minor axis of the tumor were measured using calipers, and the tumor size was calculated using the following equation. […]

Substance	IC50 (NCI-N87; Her2-overexpressing cells NCI-N87) [µg/mL]	anticancer effect compared to the commercialized Herceptin ADC, Kadcyla (NCI-N87; NCI-N87 and BT474 cytotoxicity, comparison with Kadcyla)	IC50 (BT474) [µg/mL]	suppressing tumor growth [1]
trastuzumab-DM1 conjugate: trastuzumab with two norbornenes introduced by Compound II-FcBP(6Lys)-norbornene, conjugated with Tetrazine-PEG8-DM1; Drug Antibody Ratio=2	0.0821	equivalent level	0.0296	excellent ability of suppressing tumor growth compared to Herceptin
Herceptin: Herceptin (Trastuzumab), antibody [reference compound]	–	–	–	no tendency of suppressing tumor growth
